By UniProt entry, the sequences of proteins in these tests, tags left out. Residues count along the entry.
UniProt O42275, 24-633 limits assumed: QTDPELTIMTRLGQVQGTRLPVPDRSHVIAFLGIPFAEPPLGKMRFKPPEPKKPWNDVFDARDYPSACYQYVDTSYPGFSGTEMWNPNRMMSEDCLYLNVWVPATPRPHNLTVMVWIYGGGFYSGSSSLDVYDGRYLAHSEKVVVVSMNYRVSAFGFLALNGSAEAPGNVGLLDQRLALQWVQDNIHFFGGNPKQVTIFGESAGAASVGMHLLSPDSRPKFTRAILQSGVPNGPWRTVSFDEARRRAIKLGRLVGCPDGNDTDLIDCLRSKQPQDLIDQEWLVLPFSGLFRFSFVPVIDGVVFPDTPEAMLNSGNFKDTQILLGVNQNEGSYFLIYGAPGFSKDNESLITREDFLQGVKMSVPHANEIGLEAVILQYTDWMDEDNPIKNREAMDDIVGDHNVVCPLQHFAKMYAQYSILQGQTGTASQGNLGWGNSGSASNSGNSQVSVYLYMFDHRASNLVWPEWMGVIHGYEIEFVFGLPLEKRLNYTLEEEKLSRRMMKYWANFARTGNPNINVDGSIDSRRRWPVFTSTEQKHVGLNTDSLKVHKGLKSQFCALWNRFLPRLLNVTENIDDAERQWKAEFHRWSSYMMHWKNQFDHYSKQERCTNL
UniProt P81908, whole entry: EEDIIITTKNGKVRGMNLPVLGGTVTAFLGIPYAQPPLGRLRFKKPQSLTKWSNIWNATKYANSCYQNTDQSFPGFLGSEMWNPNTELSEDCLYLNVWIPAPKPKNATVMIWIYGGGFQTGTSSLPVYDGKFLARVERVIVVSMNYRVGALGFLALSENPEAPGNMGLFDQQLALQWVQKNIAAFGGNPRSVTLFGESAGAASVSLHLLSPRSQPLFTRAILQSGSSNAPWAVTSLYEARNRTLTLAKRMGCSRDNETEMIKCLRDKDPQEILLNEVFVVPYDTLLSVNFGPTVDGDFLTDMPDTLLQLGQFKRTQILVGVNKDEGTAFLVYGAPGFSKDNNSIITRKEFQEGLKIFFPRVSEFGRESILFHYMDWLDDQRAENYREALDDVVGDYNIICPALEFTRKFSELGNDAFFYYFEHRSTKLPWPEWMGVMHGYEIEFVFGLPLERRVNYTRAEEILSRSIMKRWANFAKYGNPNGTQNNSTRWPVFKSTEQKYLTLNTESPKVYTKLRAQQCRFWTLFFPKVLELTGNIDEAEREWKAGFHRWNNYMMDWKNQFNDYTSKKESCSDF

According to article PMC8704707 (Pharmaceuticals, 2021):

Assays:
[1] = target: AChE from electric eel (EeAChE) (Electrophorus electricus, UniProt O42275); assay: Inhibition of acetylcholinesterase, Ellman's method; format: biochemical
[2] = target: BuChE from equine serum (EqBuChE) (Equus caballus, UniProt P81908); assay: Inhibition of butyrylcholinesterase, Ellman's method; format: biochemical; conditions: read-out: IC50 BuChE; mean ± SD, n = three independent experiments; BTCh 40 µM
[3] = system: HepG2 cells; assay: Cytotoxicity, CellTiter 96 (MTS) assay; conditions: range of tested concentrations up to 500 µM

Question: For `N=C(NN)N[N+](=O)[O-]`, which Selectivity AChE/BuChE ([1]; ratio of IC50 for AChE/IC50 for BuChE, values above 1 indicate stronger inhibition of BuChE) is on record?
Answer: < 0.09

Question: And the IC50 ([1]; read-out: IC50 AChE, mean ± SD, n = three independent experiments, ATCh 40 µM)?
Answer: 46.9 µM

Question: What about the IC50 [2] of the same compound?
Answer: > 500 µM

Question: What about the “Cytotoxicity in HepG2 in words” value [3] of the same compound?
Answer: no significant cytotoxicity

Some compounds may have been tested in ways that are not shown here.
